## Antibody variant affinities, Ab-14 light chain, assay 1

From the AlphaSeq antibody data of Engelhart et al. 2022 (doi:10.1038/s41597-022-01779-4), copy in the FLAb collection.

Target peptide (SARS-CoV-2 spike, HR2 region): PDVDLGDISGINAS

Each scFv is VH, three GGGGS repeats, VL, as in the parent Ab-14, and differs from it in the CDRs of the light chain only.
VH: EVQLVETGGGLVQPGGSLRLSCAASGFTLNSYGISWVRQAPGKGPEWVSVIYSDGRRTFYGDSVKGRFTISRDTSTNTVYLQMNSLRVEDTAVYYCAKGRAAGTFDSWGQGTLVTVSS
VL: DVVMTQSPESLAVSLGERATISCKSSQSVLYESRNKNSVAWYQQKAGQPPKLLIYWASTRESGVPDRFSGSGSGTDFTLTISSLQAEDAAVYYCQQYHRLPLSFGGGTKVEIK

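The parent was found by panning a naive human phage display library on the peptide. AAYL50 was designed without a model: most single CDR substitutions and a random sample of double and triple ones. Affinity was read by AlphaSeq, a pooled yeast mating assay with surface-displayed partners. Binding brings cells together so that they mate, and sequencing counts the barcode pairs among the diploids. Each replicate has its own calibration line, from reference interactions of the BCL2 family. Mating was done three times.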

Each variant is given by its three light chain CDRs, as the data file delimits them; those of the parent are KSSQSVLYESRNKNSVA, WASTRES, QQYHRLPLS.
Scale: log10 of Kd in nM, estimated from mating counts; low values are strong binders.
"ND" marks a missing value. The strain was present, yet no cells mated with the target were sequenced in that replicate, which points to weak or no binding.
Background: pairings of library AAYL50 with three empty control strains gave a value in 18% of cases (median 4.19, 5th percentile 2.99). Values in that range, when seen in few replicates, are hard to tell from nonspecific mating. Also given: how often the same scFv was detected with the empty control strains, with their mean in brackets.
Parent in this assay: reference entry 0.65, copy in this library 1.68.

| # | CDR-L1 | CDR-L2 | CDR-L3 | log10 Kd, replicates | empty controls |
|---|---|---|---|---|---|
| 1 | TSSQSVLYESRNKNQVA | WASTRES | GQYHRLPLS | 5.91 / ND / ND | 2/9 (4.60) |
| 2 | KSKQSVLYEWRNKNSVP | WASTRES | QQYHRLPLS | 4.75 / ND / ND | 3/9 (4.00) |
| 3 | KSSQSVLYESRNKNSSA | WASRRES | QQYFRLPLS | 4.69 / ND / ND | 4/9 (3.88) |
| 4 | KSSQSILYESRNKNKVA | WASTRES | QQYWRLPLS | ND / ND / ND | 0/9 |
| 5 | KSSKSVLYESRNKNSVA | WAVTRES | QQYIRLPLS | 3.61 / 2.62 / 4.17 | 1/9 (3.57) |
| 6 | KSSQGVLYESREKNSVA | WASTRES | QQYRRLPLS | 2.89 / 3.13 / 3.52 | 0/9 |
| 7 | KSSQSVLHESRNKNSVA | WASNRES | QQYHRLPLS | ND / ND / ND | 0/9 |
| 8 | KSSQSVLYESRNKNSVA | HASTRES | QQCHRRPLS | 4.39 / 3.61 / 3.46 | 3/9 (4.25) |
| 9 | KSSQSVLYESRNKNSVA | WASTQMS | QQYDRLPLS | ND / 4.18 / 3.42 | 3/9 (4.38) |
| 10 | KSSQSVLYESRNKNSVA | WASTRES | QQYDNLALS | ND / 3.08 / ND | 2/9 (3.62) |
| 11 | KSSQSVLYESRNKNQVA | WASTRES | QQYHRSPLN | 4.75 / 4.56 / ND | 5/9 (5.18) |
| 12 | KSSQSVLYESSTWNSVA | WASTRES | QQYHRLPLS | 0.78 / 0.93 / 0.75 | 1/9 (4.32) |
| 13 | KSSSSVMYESRNKMSVA | WASTRES | QQYHRLPLS | ND / 3.46 / ND | 0/9 |
| 14 | MSCQSVLYCSRNKNSVA | WASTRES | QQYHRLPLS | ND / ND / ND | 0/9 |
| 15 | KSSQSVLYESRNKNSVA | WTSTQET | QQYHRLPLS | ND / ND / 5.11 | 1/9 (3.57) |
| 16 | KSSQSVLYESRNKFSRA | WAYTRES | QQYHRLPLS | 4.89 / 4.20 / 4.41 | 3/9 (4.83) |
| 17 | KSSESVLYESRNKNSVA | WASTRES | QQKHRLLLS | ND / ND / ND | 0/9 |
| 18 | KSSQSVLYESRNKNSVR | WASTHES | QQYHRLPLR | ND / ND / ND | 2/9 (4.32) |
| 19 | KSSQSVLYESRNKNSVA | WASTMES | QQYHRLPLS | 2.14 / 1.94 / ND | 1/9 (3.83) |
| 20 | KSSQSFLYEYRNKNSVA | WASTRES | QQYHRLNLS | 1.01 / 1.04 / 1.76 | 0/9 |
| 21 | PSSQSVLWESRNKNSVA | WASTRES | QQYHRLPLS | ND / ND / ND | 0/9 |
| 22 | KSSQSVLFESRNVNSVG | WASTRES | QQYHRLPLS | ND / ND / 3.26 | 4/9 (3.99) |
| 23 | KSSQSVLYESRNKNSVR | WASTRES | QQYARLPAS | ND / ND / ND | 0/9 |
| 24 | LSSQSLLYESRNKNSVA | WASTRES | QKYHRLPLS | ND / ND / ND | 0/9 |
| 25 | KSFQSVLYESRNKNSVL | WASTRES | QTYHRLPLS | ND / 5.40 / ND | 2/9 (3.93) |
| 26 | PSSQSVLYESRNKNSVA | WCSTRYS | QQYHRLPLS | ND / ND / ND | 2/9 (3.60) |
| 27 | KSSQSVLYESRNKNRVA | WMSTRDS | QQYHRLPLS | ND / 3.91 / ND | 1/9 (4.61) |
| 28 | KSSLSELYESRNKNMVA | WASTRES | QQYHRLPLS | 2.10 / 1.91 / 2.06 | 3/9 (4.68) |
| 29 | KDSQSVLYTSRCKNSVA | WASTRES | QQYHRLPLS | 2.47 / 2.34 / 2.73 | 4/9 (3.66) |
| 30 | KSRQCVLYERRNKNSVA | WASTRES | QQYHRLPLS | 5.09 / 4.39 / 4.64 | 5/9 (4.34) |
| 31 | KSSSSVLYESKNKNSVA | WASTRES | QQYHRHPLS | ND / ND / ND | 1/9 (2.45) |
| 32 | KSSQSVLYESRNPNSVA | WASTRES | QQYHRSPLE | 1.72 / 1.84 / 2.01 | 0/9 |
| 33 | GSSQSVLYESRNKNLVA | GASTRES | QQYHRLPLS | 1.54 / 1.27 / 1.25 | 0/9 |
| 34 | KGSQSYLYESVNKNSVA | WASTRES | QQYHRLPLS | 0.96 / 1.08 / 1.33 | 1/9 (4.32) |
| 35 | KSSQSVLYESRPKNSFA | WASTTES | QQYHRLPLS | ND / 4.24 / ND | 0/9 |
| 36 | KSSQSVLEESRYKNSVA | EASTRES | QQYHRLPLS | -0.14 / 0.18 / -0.02 | 3/9 (3.94) |
| 37 | KSSQSVLYNSRNKNSVA | WNSTRGS | QQYHRLPLS | ND / ND / 3.14 | 0/9 |
| 38 | KSSQSVFYESRNKNSVA | WASTRES | QEYHRMPLS | 0.97 / 1.10 / 1.05 | 2/9 (3.92) |
| 39 | KSNQSVLYESRNKNSVA | IASTRES | QQYHRLPLS | 3.88 / ND / ND | 4/9 (4.66) |

From the list, the first 6 with no signal in any replicate:

CDR-L1	CDR-L2	CDR-L3	log10 Kd, replicates	empty controls
KSSQSILYESRNKNKVA	WASTRES	QQYWRLPLS	ND / ND / ND	0/9
KSSQSVLHESRNKNSVA	WASNRES	QQYHRLPLS	ND / ND / ND	0/9
MSCQSVLYCSRNKNSVA	WASTRES	QQYHRLPLS	ND / ND / ND	0/9
KSSESVLYESRNKNSVA	WASTRES	QQKHRLLLS	ND / ND / ND	0/9
KSSQSVLYESRNKNSVR	WASTHES	QQYHRLPLR	ND / ND / ND	2/9 (4.32)
PSSQSVLWESRNKNSVA	WASTRES	QQYHRLPLS	ND / ND / ND	0/9